Source: PubChem BioAssay AID2216 (Broad Institute, 2009)
The list shows a part of the results, in another mix than the full data. Inconclusive results are not listed. Activity calls are given as the source filed them.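 How the source made its calls: active means more than half of the replicate wells show a fall in the fluorescence ratio signal beyond about 16% (limit read from the data, passing the limit was not always enough); inconclusive means exactly half of the replicate wells pass the set limit; inactive means fewer than half of replicates pass the limit.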

tested on: Ran GTPase (GTP-bound) - importin-beta complex; test: inhibitors of RanGTP-importin-beta interaction, primary screen, biochemical, FRET, CFP-Ran, YFP-importin-beta, homogeneous (AID 2216); conditions: cell-free CFP-Ran/YFP-importin-beta FRET ratio; active compounds read high; concentration not given here;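 further: 0% = DMSO wells and 100% = Ran loaded with GDP instead of GTP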

Compound	inhibition
O=C(NCC1(N2CCCCC2)CCCCC1)c1cccc(C(F)(F)F)c1	inactive: -0.88%
O=C(NCC1(N2CCOCC2)CCCCC1)c1cc(=O)[nH]c2ccccc12	inactive: 2.66%
COc1cc(C(=O)NCC2(N3CCCCC3)CCCCC2)ccc1OC(F)F	inactive: 1.13%
COc1ccc(NC2CCN(C(=O)OC(C)(C)C)CC2)cc1	inactive: 7.66%
CN1CCN(CCOC(=O)C(O)(c2ccccc2)c2ccccc2)CC1	inactive: 4.75%
N#CC1(Nc2ccccc2)CCN(CCc2ccccc2)CC1	inactive: 5%
CCN1CCC(Nc2ccc(Cl)cc2)CC1	inactive: 0.412%
O=C(NCC1(N2CCCCC2)CCCCC1)c1cccc([N+](=O)[O-])c1	inactive: -0.369%
CN1CCC(Nc2cccc(F)c2)CC1	inactive: -1.9%
CCCOc1ccc(C(=O)NCC2(N(C)C)CCCCC2)cc1OC	inactive: -1.15%
CC(C)c1ccc(NC2CCN(C(=O)OC(C)(C)C)CC2)cc1	inactive: -1.08%
CN(C)c1cccc(C(=O)NCC2(N3CCCCC3)CCCCC2)c1	inactive: 1.02%
COc1ccc(CN(CCCl)CCCl)cc1Cl	inactive: 0.0227%
COc1cc(OC)c(C(=O)NCC2(N(C)C)CCCCC2)cc1OC	inactive: 7.63%
Cc1cc(C)cc(N(C(=O)c2ccccc2)C2CCN(C(=O)OC(C)(C)C)CC2)c1	inactive: 0.539%
O=C(NCC1(N2CCCCC2)CCCCC1)c1ccc(Cl)nc1	inactive: -2.21%
O=C(NCC1(N2CCOCC2)CCCCC1)c1cc2ccccc2o1	inactive: -1.37%
O=C(OC1CN2CCC1CC2)C1c2ccccc2Oc2ccccc21 (stereo not given)	inactive: -0.879%
N#CC1(Nc2ccccc2)CCN(Cc2ccccc2)CC1	inactive: 4.05%
CCOC(=O)N1CCC(Nc2ccc(OC)cc2)CC1	inactive: -2.71%
COc1ccc(C(=O)NCC2(N3CCCCC3)CCCCC2)c(OC)c1OC	inactive: -2.1%
COc1ccc(C(=O)NCC2(N3CCCCC3)CCCCC2)cc1	inactive: -0.59%
O=C(NCC1(N2CCCCC2)CCCCC1)c1cccs1	inactive: 0.833%
O=C(NCC1(N2CCCCC2)CCCCC1)c1ccc(=O)[nH]c1	inactive: -3.07%
CSc1ccccc1C(=O)NCC1(N2CCCCC2)CCCCC1	inactive: 1.78%
Cc1ccc(OCC(C)C)c(CN(CCCl)CCCl)c1	inactive: 0.495%
COc1cc(C(=O)NCC2(N(C)C)CCCCC2)ccc1OC(F)F	inactive: -1.78%
CCOC(=O)N1CCC(Nc2cccc(C)c2)CC1	inactive: 4.57%

Compound	inhibition
CCOc1ccc(C)cc1CN(CCCl)CCCl	inactive: -0.578%
CCOC(=O)N1CCC(Nc2ccc(F)cc2)CC1	inactive: -2.72%
COc1ccc(NC2CCN(CCc3ccccc3)CC2)c(OC)c1	inactive: -1.9%
O=C(NCC1(N2CCCCC2)CCCCC1)c1ccc(F)cc1	inactive: 5.04%
CCN1CCC(Nc2cccc(F)c2)CC1	inactive: 2.41%
CN(C)c1ccc(C(=O)NCC2(N3CCCCC3)CCCCC2)cc1	inactive: 3.12%
COc1cc(OC)cc(C(=O)NCC2(N3CCCCC3)CCCCC2)c1	inactive: 3.39%
Fc1ccccc1NC1CCN(Cc2ccccc2)CC1	inactive: 0.915%
Cc1ccc(C(=O)NCC2(N3CCCCC3)CCCCC2)o1	inactive: 2.7%
COc1cccc(C(=O)N(c2cc(C)cc(C)c2)C2CCN(C(=O)OC(C)(C)C)CC2)c1	inactive: 6.54%
COc1cc(OC)cc(C(=O)NCC2(N3CCOCC3)CCCCC2)c1	inactive: -0.188%
CCC(CO)(C(=O)OC1CN2CCC1CC2)c1ccccc1 (stereo not given)	inactive: 4.06%
CCCOc1ccc(C)cc1CN(CCCl)CCCl	inactive: -2.54%
CN1CCC(Nc2ccc(F)c(Cl)c2)CC1	inactive: 6.86%
CCOc1ncccc1C(=O)NCC1(N2CCOCC2)CCCCC1	inactive: -2.77%
O=C(O)C1(Nc2ccccc2)CCN(Cc2ccccc2)CC1	inactive: 5.86%
CC(C)(C)OC(=O)N1CCC(Nc2ccccc2)CC1	inactive: -0.77%
CCCOc1ccc(C(=O)NCC2(N(C)C)CCCCC2)cc1	inactive: 1.74%
CCOC(=O)N1CCC(Nc2ccc(C)cc2)CC1	inactive: -7.42%
N/C(=N\O)c1c(N)no[n+]1[O-]	inactive: 0.164%
O=C(OC1CN2CCC1CC2)C1c2ccccc2C=Cc2ccccc21 (stereo not given)	inactive: 6.9%
COc1ccc(C(=O)NCC2(N3CCOCC3)CCCCC2)cc1OC	inactive: 2.6%
CN(C)C1(CNC(=O)c2cccc(C#N)c2)CCCCC1	inactive: -0.542%
CCCN1CCC(Nc2cc(OC)cc(OC)c2)CC1	inactive: -4.59%
c1ccc(CN2CCC(Nc3ccccc3)CC2)cc1	inactive: -3.14%
N#Cc1ccc(C(=O)NCC2(N3CCCCC3)CCCCC2)cc1	inactive: 2.36%
CC(C)(C)OC(=O)N1CCC(N(C(=O)c2ccccc2)c2ccc(Cl)cc2)CC1	inactive: -1.26%
